Experimental data published in article PMC2645672, “Mechanism of Neuronal versus Endothelial Cell Uptake of Alzheimer's Disease Amyloid β Protein” (PLoS ONE, 2009).

Experiments:
[1] = system: wild type (WT) mouse brain slices, hippocampal neurons; experiment: Localization of F-Aβ40 and AF633-Trf in brain slices (laser confocal microscopy); conditions: 15 µg/ml F-Aβ40 and 20 µg/ml AF633-Trf in KRB, 30 min, acidified KRB wash
[2] = system: differentiated PC12 cells; experiment: Cellular uptake by flow cytometry in differentiated PC12 cells; conditions: 15 µg/ml F-Aβ40 and 20 µg/ml AF633-Trf; for Uptake at 4°C versus 37°C (histograms of cellular fluorescence): 30 min, cells trypsinized, flow cytometry; for Uptake in ATP depleted cells versus normal cells (flow cytometry): 30 min pre-incubation with sodium azide and 50 mM 2-deoxy-D-glucose in glucose free DMEM, 37°C

Row | Substance | Signal toward the center of the neuronal cell body at 4°C versus 37°C [1] | Uptake at 4°C versus 37°C (histograms of cellular fluorescence) [2] | Uptake in ATP depleted cells versus normal cells (flow cytometry) [2]
1 | AF633-Trf: Alexa Fluor 633 labeled transferrin, a clathrin mediated endocytosis marker [reference compound] | decreased significantly | significantly lower | significantly impaired
2 | F-Aβ40: fluorescein labeled human Aβ40 | not significantly affected | not significantly different | significantly higher
